{"sequences": {"note": "Protein sequences, listed by entry. Tags and fused reporters are not part of them.", "UniProt P08172, whole entry": "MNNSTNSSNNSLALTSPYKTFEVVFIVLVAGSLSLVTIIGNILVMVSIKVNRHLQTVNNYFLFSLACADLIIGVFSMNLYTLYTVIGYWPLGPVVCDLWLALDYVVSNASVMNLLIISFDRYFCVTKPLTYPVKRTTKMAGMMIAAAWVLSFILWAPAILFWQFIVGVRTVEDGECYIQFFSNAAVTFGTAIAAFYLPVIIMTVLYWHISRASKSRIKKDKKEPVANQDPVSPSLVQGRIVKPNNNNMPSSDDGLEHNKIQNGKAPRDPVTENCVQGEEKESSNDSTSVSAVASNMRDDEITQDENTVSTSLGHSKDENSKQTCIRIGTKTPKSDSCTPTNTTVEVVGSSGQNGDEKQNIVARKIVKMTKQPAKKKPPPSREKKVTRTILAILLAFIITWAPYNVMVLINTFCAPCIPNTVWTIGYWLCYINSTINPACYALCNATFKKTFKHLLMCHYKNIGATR"}, "source": "patent US20130289019A1", "about": "“METHODS OF TREATING BEHAVIORIAL AND/OR MENTAL DISORDERS” (AMAZING GRACE, INC., priority 2012, published 2013)", "origin": "cited, not measured here", "biological_target": "M2 receptors (Homo sapiens, UniProt P08172)", "details": "Billard et al. 1995; cited from earlier work"}
{"smiles": "CN1[C@@H]2C[C@@H](OC(=O)[C@H](CO)c3ccccc3)C[C@H]1[C@@H]1O[C@@H]12", "note": "[Scopolamine]", "values": [{"measurement": "Ki", "value": 0.88, "unit": "nM"}]}
